# Laboratory results taken from publication PMC12575352.
# Read-outs that look alike come from different tables or passages of the source. Only a part of the results on these compounds is given; other tests are left out.
# Legend:
# [1] = Observed (experimental); ref PubChem; cited from earlier work
# [2] = cited from earlier work; for CL: humans
# [3] = humans, 0.1 mg, Observed; ref Lim et al., 2012; cited from earlier work
# [4] = rats, 1.75 μg, Observed; ref YK. et al., 2024; cited from earlier work
# [5] = Reported clinical pharmacokinetics after intravenous sufentanil, alfentanil, remifentanil (literature); conditions: for CL: humans, intravenous 2.4 μg/kg (170 μg), estimated as dose/AUC from literature data, ref Bower and Hull (1982)
# [6] = tested on: plasma proteins; conditions: Observed, cited from earlier work
# [7] = 10 surgical patients, intravenous 5 μg/kg, ref Bovill et al., 1984
smiles,measurement,setting,value
CCC(=O)N(c1ccccc1)C1(C(=O)OC)CCN(CCC(=O)OC)CC1,logP,[1],1.4
same,CL,"[2]; Observed, intravenous 5 μg/kg, ref Westmoreland et al. (1993)",184.5 L/h
same,T1/2,"[2]; Observed, surgical patients, intravenous 5 μg/kg, ref Westmoreland et al. (1993), listed as remifentanil",14.4 min
same,T1/2,"[2]; surgical patients, intravenous 2 μg/kg, converted to hours, ref Westmoreland et al., 1993",10.2 min
same,T1/2,"[2]; surgical patients, intravenous 2 μg/kg, ref Westmoreland et al., 1993",10.19 min
same,T1/2,"[2]; surgical patients, intravenous 5 μg/kg, ref Westmoreland et al., 1993",14.35 min
same,T1/2,"[2]; surgical patients, intravenous 15 μg/kg, converted to hours, ref Westmoreland et al., 1993",15.6 min
same,T1/2,"[2]; surgical patients, intravenous 15 μg/kg, ref Westmoreland et al., 1993",15.67 min
same,T1/2,"[2]; surgical patients, intravenous 30 μg/kg, converted to hours, ref Westmoreland et al., 1993",20.4 min
same,T1/2,"[2]; surgical patients, intravenous 30 μg/kg, ref Westmoreland et al., 1993",20.47 min
CCC(=O)N(c1ccccc1)C1CCN(CCc2ccccc2)CC1,AUC0-inf,[3],1.5959 ng·h/mL
same,AUC0-t,[3],1.5306 ng·h/mL
same,AUC0-inf,[4],"3,552 pg·h/mL"
same,AUC0-t,[4],"2,272 pg·h/mL"
CCC(=O)N(c1ccccc1)C1(COC)CCN(CCn2nnn(CC)c2=O)CC1,logP,[1],2.16
same,CL,[5],31.44 L/h
same,CL,[5]; listed as alfentanil,approximately 31.44 L/h
same,T1/2,"[2]; Observed, healthy volunteers, intravenous 2.4 μg/kg (170 μg), ref Bower and Hull (1982)",72.6 min
same,Fup,"[6]; alfentanil study, ref Bower and Hull (1982)",12.75%
CCC(=O)N(c1ccccc1)C1(COC)CCN(CCc2cccs2)CC1,logP,[1],3.95
same,absolute Vdss,"[5]; calculated from literature Vdss with standard body weight of 70 kg, ref Bovill et al., 1984",119 ± 14 L
same,mean half-life (T1/2),[2]; [7],164 ± 22 min
same,mean steady-state volume of distribution (Vdss),[2]; [7],1.7 ± 0.2 L/kg
same,T1/2,"[2]; Observed, humans (10 surgical patients), intravenous 5 μg/kg, ref Bovill et al. (1984), listed as sufentanil",164 ± 22.2 min
same,CL,"[2]; Observed, intravenous 5 μg/kg, 3F 7M, ref Bovill et al. (1984)",54.01 L/h
same,Fup,"[6]; sufentanil study, ref Bovill et al. (1984)",7.5%
